Target: Sodium channel protein type 9 subunit alpha (Homo sapiens, UniProt Q15858)
Experiment: Inhibition of human Nav1.7 by PatchXpress assay

Sequences of proteins named here, by UniProt entry; tags and fusion partners are left off.
UniProt Q15858, whole entry: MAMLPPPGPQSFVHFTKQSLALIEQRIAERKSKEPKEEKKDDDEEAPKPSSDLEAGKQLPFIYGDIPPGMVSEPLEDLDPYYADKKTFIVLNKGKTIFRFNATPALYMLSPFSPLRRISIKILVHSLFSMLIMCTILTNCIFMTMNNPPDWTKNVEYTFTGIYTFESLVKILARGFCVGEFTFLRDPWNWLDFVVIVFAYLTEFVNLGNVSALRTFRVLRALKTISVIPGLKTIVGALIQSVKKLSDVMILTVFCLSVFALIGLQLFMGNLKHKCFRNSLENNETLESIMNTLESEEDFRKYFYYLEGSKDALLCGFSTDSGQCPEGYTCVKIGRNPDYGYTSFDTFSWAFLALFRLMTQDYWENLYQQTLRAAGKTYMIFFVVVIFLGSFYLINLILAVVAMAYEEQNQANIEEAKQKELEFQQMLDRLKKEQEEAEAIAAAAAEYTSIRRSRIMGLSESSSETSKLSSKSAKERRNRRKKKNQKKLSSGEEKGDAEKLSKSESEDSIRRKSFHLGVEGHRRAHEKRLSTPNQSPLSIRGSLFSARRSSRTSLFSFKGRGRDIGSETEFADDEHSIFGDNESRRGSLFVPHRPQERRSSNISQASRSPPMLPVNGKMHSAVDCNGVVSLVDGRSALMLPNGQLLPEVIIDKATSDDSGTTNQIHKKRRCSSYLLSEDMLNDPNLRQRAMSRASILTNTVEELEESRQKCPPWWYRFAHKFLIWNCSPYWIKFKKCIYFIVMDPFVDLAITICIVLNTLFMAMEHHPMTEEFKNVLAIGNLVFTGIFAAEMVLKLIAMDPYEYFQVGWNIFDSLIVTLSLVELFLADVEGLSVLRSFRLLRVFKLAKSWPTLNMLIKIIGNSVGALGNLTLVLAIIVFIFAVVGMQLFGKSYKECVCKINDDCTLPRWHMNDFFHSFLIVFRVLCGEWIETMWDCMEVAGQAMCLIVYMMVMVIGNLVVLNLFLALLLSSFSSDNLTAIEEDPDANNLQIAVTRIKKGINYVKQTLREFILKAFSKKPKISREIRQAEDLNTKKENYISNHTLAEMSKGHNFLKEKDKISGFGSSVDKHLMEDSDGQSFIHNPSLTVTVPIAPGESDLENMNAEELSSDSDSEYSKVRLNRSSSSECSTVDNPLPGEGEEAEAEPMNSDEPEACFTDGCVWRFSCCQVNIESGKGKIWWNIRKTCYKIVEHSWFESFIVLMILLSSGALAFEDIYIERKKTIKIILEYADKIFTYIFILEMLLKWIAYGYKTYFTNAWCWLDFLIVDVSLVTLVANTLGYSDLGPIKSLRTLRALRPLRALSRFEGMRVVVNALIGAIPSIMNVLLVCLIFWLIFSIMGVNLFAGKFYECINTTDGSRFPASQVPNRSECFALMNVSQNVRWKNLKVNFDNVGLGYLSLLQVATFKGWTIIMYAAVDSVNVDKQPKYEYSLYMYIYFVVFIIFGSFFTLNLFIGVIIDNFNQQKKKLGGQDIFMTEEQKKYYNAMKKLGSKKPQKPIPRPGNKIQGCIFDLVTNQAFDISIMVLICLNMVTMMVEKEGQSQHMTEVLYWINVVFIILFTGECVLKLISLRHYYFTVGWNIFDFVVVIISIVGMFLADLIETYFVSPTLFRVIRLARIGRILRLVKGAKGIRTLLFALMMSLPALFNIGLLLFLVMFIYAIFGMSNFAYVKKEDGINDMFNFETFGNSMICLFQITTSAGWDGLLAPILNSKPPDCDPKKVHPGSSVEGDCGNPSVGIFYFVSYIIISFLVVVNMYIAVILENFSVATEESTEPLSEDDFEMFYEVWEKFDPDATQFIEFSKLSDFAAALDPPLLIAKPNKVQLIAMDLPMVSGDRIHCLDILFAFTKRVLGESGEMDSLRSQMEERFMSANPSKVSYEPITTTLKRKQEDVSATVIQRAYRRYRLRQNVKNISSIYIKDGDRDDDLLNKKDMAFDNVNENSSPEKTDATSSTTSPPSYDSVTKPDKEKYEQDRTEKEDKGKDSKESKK

CNC(=O)N(c1ccc(S(=O)(=O)Nc2ncccn2)cn1)c1cc(F)c(-c2ccc(F)c(OC(F)(F)F)c2)cc1OC
IC50: 19 nM

From ChEMBL document CHEMBL5104138, “Discovery of pyridyl urea sulfonamide inhibitors of NaV1.7” (Bioorg Med Chem Lett, 2022)
